As usually defined, the IC50 is the concentration that inhibits the measured activity by half. A lower IC50 goes with greater potency.

The target of this assay is T1, Polyunsaturated fatty acid 5-lipoxygenase (Rattus norvegicus, UniProt P12527).
T1 sequence (P12527 whole entry): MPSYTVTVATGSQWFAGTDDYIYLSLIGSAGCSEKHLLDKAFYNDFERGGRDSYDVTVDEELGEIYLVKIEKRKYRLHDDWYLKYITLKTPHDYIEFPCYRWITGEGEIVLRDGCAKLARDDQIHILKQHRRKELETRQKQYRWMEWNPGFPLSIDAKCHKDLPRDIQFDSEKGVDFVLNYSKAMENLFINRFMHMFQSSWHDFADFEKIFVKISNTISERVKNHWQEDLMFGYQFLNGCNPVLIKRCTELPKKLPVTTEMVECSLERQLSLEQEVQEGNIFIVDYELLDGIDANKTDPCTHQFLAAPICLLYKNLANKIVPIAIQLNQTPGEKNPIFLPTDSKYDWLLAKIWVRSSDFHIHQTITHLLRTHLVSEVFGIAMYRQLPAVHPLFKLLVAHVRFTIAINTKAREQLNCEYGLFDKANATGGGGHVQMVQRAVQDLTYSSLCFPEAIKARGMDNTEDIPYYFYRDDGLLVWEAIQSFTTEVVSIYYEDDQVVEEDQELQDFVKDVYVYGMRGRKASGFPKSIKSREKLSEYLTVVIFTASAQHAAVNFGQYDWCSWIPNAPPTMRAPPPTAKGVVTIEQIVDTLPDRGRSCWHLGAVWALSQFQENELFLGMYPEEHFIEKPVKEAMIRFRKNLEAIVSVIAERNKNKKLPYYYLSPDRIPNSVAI
Put plainly: Evaluated in vitro for its inhibitory activity against 5-lipoxygenase. Summed up: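 RBL-1 cells grown in MEM + 12% FBS, washed in PBS pH 7.4, resuspended at 2×10^6 cells/mL in PBS with 1.0 mM calcium. Preincubated 10 min at room temperature with compound in DMSO, then stimulated with A23187 (5 μM) 7 min at 37 °C; stopped on ice. Supernatant LTB4 by radioimmunoassay.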

On to `Cc1nc(-c2cc(C(C)(C)C)c(O)c(C(C)(C)C)c2)no1`, for which the half-maximal inhibitory concentration (IC50) turned out to be 2.3 µM.

(Values after ChEMBL document CHEMBL1125307, “Novel 1,2,4-oxadiazoles and 1,2,4-thiadiazoles as dual 5-lipoxygenase and cyclooxygenase inhibitors” (J Med Chem, 1992).)
